## Antibody variant affinities, Ab-14 heavy chain, assay 1

Source: Engelhart et al. 2022 (doi:10.1038/s41597-022-01779-4), MIT Lincoln Laboratory and A-Alpha Bio; data file from the FLAb repository.

Antigen: PDVDLGDISGINAS, a 14-residue peptide of the SARS-CoV-2 spike HR2 region.

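In library AAYL49, one, two or three CDR residues were substituted; doubles and triples were drawn at random. AlphaSeq pools MATa yeast showing the antibodies with MATalpha yeast showing the peptide. Binding brings cells together so that they mate, and sequencing counts the barcode pairs among the diploids. A regression on co-assayed BCL2-family reference pairs converts the normalised counts of each replicate to an apparent Kd. The assay was run in three technical replicates.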

Parent: Ab-14, a human scFv built as VH, three GGGGS repeats, VL. Only the CDRs of the heavy chain vary.
VH: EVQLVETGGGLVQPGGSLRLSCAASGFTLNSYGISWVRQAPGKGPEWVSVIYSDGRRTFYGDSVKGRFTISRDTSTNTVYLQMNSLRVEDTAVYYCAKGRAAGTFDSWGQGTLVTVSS
VL: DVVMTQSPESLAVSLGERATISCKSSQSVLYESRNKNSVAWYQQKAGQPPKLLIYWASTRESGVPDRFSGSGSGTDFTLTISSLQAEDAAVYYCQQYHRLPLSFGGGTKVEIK

Each variant is given by its three heavy chain CDRs, as the data file delimits them; those of the parent are GFTLNSYGIS, VIYSDGRRTFYGDSVK, GRAAGTFDS. This list gathers variants with a substitution at R56 (VH, numbered from residue 1). Values are log10 of the apparent Kd in nM; lower means stronger binding. The mean shown is taken over the replicates in which the pair was detected. A pair that was not seen in any replicate is written "not detected"; this usually means weak binding, but a binder can also be missed. For reference, the parent read 0.65 as the reference entry and 4.11 (one replicate of three) as a member of this library. Empty control strains, which show no peptide, gave a signal in 15% of pairings with library AAYL49; the median was 4.06 and 95% of these signals were weaker than 2.83. No background was subtracted.

CDR-H1,CDR-H2,CDR-H3,"log10 Kd (nM), mean",seen in
GFTLNSHGIS,VIYSDGMRTFYGLSVK,GRAAGTFDS,not detected,0/3
GFTLNSYGIS,VIYSDGNRTFYGHSVK,GRAAETFDS,4.56,3/3
GFTLNSYGIS,VIYSDGGRTFYGDSVK,GRAAGTFDS,4.01,3/3
GFTLNSYGIS,VIYFDGYRTFYGDSVK,GRAAGTFDS,3.49,1/3
GFHLNCYGIS,VIYSDGKRTFYGDSVK,GRAAGTFDS,2.42,3/3
QFTLNSYGIS,VIYSDGKRTFYGDSVK,GRWAGTFDS,not detected,0/3
GFTQNSYGIS,VIYSDGERTFYGDSVK,WRAAGTFDS,2.01,1/3
GFTLNSQVIS,VIYSDGWRTFYGDSVK,GRAAGTFDS,not detected,0/3
GFWLNSYGIS,VIYSDGMRTFYGDSVK,GRAAGVFDS,2.99,3/3
GFTLNSYGIS,VIYSSGDRTFYGDSVK,GLAAGTFDS,not detected,0/3
GQTLNSYGIS,VIYSDGSRTAYGDSVK,GRAAGTFDS,0.63,3/3
GFTLNSYGIS,VIYSDGKRTFYGDSVK,GRAAGTSDS,1.20,3/3
GFTLNSYGIS,VIYSDENRTFYGDSVK,GRMAGTFDS,not detected,0/3
GFTLNSYGIS,VIYSDGGRTFYGDSVK,GRFMGTFDS,3.11,3/3
GFTLNSYGIS,VIYSTGWRTFYGDSVK,GRAAGTLDS,4.71,1/3
GFTLNSYGIS,VIYSVGDRTFYGDSVK,GRAAGTFDS,4.17,1/3
GFTLSSYGIS,VIYSDGTRTFYGDSVK,GRQAGTFDS,2.26,3/3
GFTLGSYGIS,VIYSDGYRTFYGDSVK,GRGAGTFDS,2.75,2/3
GFTLNSHGIS,VIYSDGWRTFYGDSVK,GRAAGTFQS,not detected,0/3
GFTLNSYGIS,VIYSDGLRTFYGDSVK,GRAAGIFDS,not detected,0/3
GFNLNSYGIS,VIYSDGSRTFLGDSVK,GRAAGTFDS,2.60,3/3
GFTLNSYGIS,VIYSDGCRTFIGDSVK,GRAAGTFQS,5.06,1/3
GFTLNSYGIS,VIYSDGHRTFYGDSVK,GRAAGTFMS,1.99,3/3
GFTLNSYGES,VIYSDGIRNFYGDSVK,GRAAGTFDS,3.57,1/3
GFELNSYGIS,VIISDGDRTFYGDSVK,GRAAGTFDS,4.04,1/3
GFTLNSYGIS,VIYSMGQRTFYGDSVK,GRAIGTFDS,4.56,3/3
GFTLYSYGIS,VIYSDGGRTFYGDSVK,GRAAHTFDS,3.55,3/3
GFTLNSYGGS,VIYSDGDRTNYGDSVK,GRAAGTFDS,not detected,0/3
GFTLNSYGIS,VIYSDQCRTFYGDSVK,GRAAGTFDS,not detected,0/3
GFTLNSYGIM,KIYSDGMRTFYGDSVK,GRAAGTFDS,not detected,0/3
GPTLNSYGIS,VIYSDGFQTFYGDSVK,GRAAGTFDS,5.47,2/3
GFTLNSYGIS,VIYSDGNRTFYGYSVK,GRAHGTFDS,3.65,1/3
GFWLNSYGIS,VIYSDGTRTFYGDSVK,GRAAGTFDS,3.10,1/3
GFTLNYNGIS,VIYSDGLRTFYGDSVK,GRAAGTFDS,not detected,0/3
GFTLNSYGIS,WIYSDGSHTFYGDSVK,GRAAGTFDS,5.02,1/3
GFTLNSYGIS,VIYSDGWRTFYGDQVK,GTAAGTFDS,2.02,3/3
GFTLNSYGIS,VIYSDGLRTFYGGSVK,GRAAGHFDS,not detected,0/3
GFTLNSYGIS,VIWSDGWRTFYGDSVK,GRAAGTFDY,4.35,1/3
GFTLNSYGIS,FIYSDGVRAFYGDSVK,GRAAGTFDS,not detected,0/3
GFTLNSYGIS,VIYSDGCRTFPGDSVK,PRAAGTFDS,not detected,0/3
GFTLNSYGIP,VIYSDGERTFYGDSVK,GRAAGTFQS,2.86,1/3
GFTLNSYGIS,VIYSDGWRTFYGDSVK,GRAAGTFRS,not detected,0/3
GFTLNDYGIS,VIYSDGPRTFYGDSMK,GRAAGTFDS,3.74,1/3
GFTLNWYGPS,VIYSDGYRTFYGDSVK,GRAAGTFDS,2.57,1/3
GFMLNSYGIS,SIYSDGIRTFYGDSVK,GRAAGTFDS,5.47,2/3
GFTLNSSGIS,VIYSDGNRTFYGDSVK,GRAAGQFDS,not detected,0/3
GFTLNSYGIS,VIYSDFARTFYGDSVK,GRAAGTFMS,3.42,1/3
GFTLNSYGIS,VIYYDGMRTFYGDSVK,GRAAGTFDS,2.15,3/3
GFTLNSYGIS,VIYSDGARTFYGDSVK,GPAAGTFMS,2.11,3/3
GFTLNSYGIS,VIYSDGHHTFYGDSVK,GRAAGTFDM,not detected,0/3
GFTLNSYPIS,VIYSDGLRTFYGDSVK,GRPAGTFDS,4.10,1/3
GFTLNSYGIS,VIYSDGGRDNYGDSVK,GRAAGTFDS,4.15,1/3
GFTLTSYGIS,VIYSDGCRTFYGDSVK,GRAAGTFDS,3.30,3/3
GFTLNSYGIS,VIYSDGVRTFYGDSVK,GRAAGTFDS,1.19,3/3
GFTLNSYGIS,VIYSDGHYTFYGDSVK,GRAAGTFDS,not detected,0/3
GFTLNVYAIS,VIYSDGLRTFYGDSVK,GRAAGTFDS,not detected,0/3
GFTLNSYGIS,VIYSDGFMTFYNDSVK,GRAAGTFDS,not detected,0/3
GFTLNSYGIS,VIYSDGERTFYGDSVK,GRAAGTFDS,2.18,3/3
GGTLNSYGIS,VIYSDGLRTFYIDSVK,GRAAGTFDS,0.92,3/3
GFTLNSYGIS,VIYSDGQRTFSGDSVG,GRAAGTFDS,not detected,0/3
GFTLNSYGID,VIYSDGSRTFYGDSVK,GRAAGKFDS,not detected,0/3
GFTLNSYGIS,VIYSDGCRTEYGDSVK,GVAAGTFDS,4.85,1/3
GFTLNSYGIS,VIYTDGPRTFYGDSVK,GRAAGTFDS,not detected,0/3
GFTLNSYGIS,VIYSQGDRTFYGDSVK,GRAYGTFDS,not detected,0/3
GFTLNSYGIS,VIYSDGARTFYVDPVK,GRAAGTFDS,2.17,3/3
GFTLNSYGIS,VIYSDGDRTFYGDSVI,GRAAGTFDS,2.31,2/3